In the library only some 4.2% were active in any assay of this set; here they are far more common.
HDAC3 inhib = human HDAC3 inhibition. O15379. recombinant HDAC3, fluorogenic peptide/trypsin coupled, fluorescence. inhibition, % at 8.3 µM. 320,000 compounds, 0.15% hits; in the data active = inhibition above about 26%, passing the limit was not always enough
NALP1 inh = inhibitors of NALP1 inflammasome in yeast; inhibition, % at 10 µM; AID 2071; S. cerevisiae NALP1/ASC/caspase-1 growth, X-gal OD620, 72 h; 280,000 compounds, 0.61% hits; in the data active = inhibition mostly above about 24%, no sharp cut-off; inactive = mostly below about 32%
MC4R antagonist = antagonists of human melanocortin 4 receptor (MC4R); P32245; MC4R-expressing cells, MTII-stimulated cAMP, LANCE TR-FRET; inhibition, % at 6.5 µM; 360,000 compounds, 0.48% hits; AID 540295;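 active = inhibition above its plate's cutoff, the mean of tested wells on that plate plus 3 SD, cut at about 29% in these data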;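 also: 0% = Melanotan II alone and 100% = Melanotan II plus saturating MCL0020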
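Material: U2OS-MC4R stable cell line | Reagent: Melanotan II challenge after compound preincubation | Doses: One concentration, 6.5 µM nominal | Incubation: 30-min compound preincubation, 1-h Melanotan II challenge, 1-h detection, room temperature | Signal: TR-FRET cAMP assay | Replicates: One well per compound, no replicates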
MC4R barr agon = human MC4R agonism via beta-arrestin; AID 540308; U2OS MC4R beta-arrestin complementation, luminescence; percent of melanotan II response, DMSO zero; 360,000 compounds, 0.98% hits; activation, % at 8.9 µM; P32245;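 active = activation above a per-plate cutoff, the mean activation of sample wells on that plate plus 3 SD, cut at about 8% in these data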
ALR inh = inhibitors of human sulfhydryl oxidase ALR; P55789; purified ALR, DTT oxidation, H2O2 HRP-luminol luminescence; inhibition, % (test concentration not listed); actives 3.8% (n = 290,000); AID 485317;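 active = mean and each replicate at 75% or more; inconclusive = only one of the two met; inactive = neither met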;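 also: stock transfer was 7.5 nL into about 7.5 µL; 0% = neutral wells and 100% = wells with inactivated enzyme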
UUG fidelity = modulators of start codon recognition fidelity in yeast; AID 602363; activity score, % at 18.7 µM; S. cerevisiae UUG-firefly luciferase reporter, luminescence/redox ratio; actives 0.13% (n = 350,000);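 active = replicate mean at a twofold rise or more, about +100% in these data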;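 note: firefly luciferase made from a UUG start codon reports start codon fidelity; reporter light over untreated wells divided by growth signal over untreated wells; some hits fall short of that in this replicate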
MC4R barr conf = human MC4R beta-arrestin agonism confirmation. U2OS MC4R beta-arrestin recruitment, luminescence; scaled DMSO 0%, Melanotan II 100%. activation, % at 8.9 µM. 2,400 compounds, 31% hits. shares compounds with MC4R barr agon;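 active = mean activation across replicates above the hit cutoff set in the earlier primary screen, cut at about 8% in these data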
MOR-DOR barr ag = activates mu-delta opioid heterodimer, MC4R agonist counter-screen. shares compounds with MC4R barr agon. U2OS PathHunter beta-arrestin, beta-gal luminescence; percent of deltorphin B response, DMSO zero. activation, % at 9.2 µM. 2,400 compounds, 5.8% hits;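 active = mean activation across replicates exceeds the hit threshold derived in the earlier primary screen, cut at about 18% in these data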;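 also: 100% = deltorphin B at 0.9 µM final and 0% = DMSO alone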
Starred values were filed as active, the others as inactive; · = no result given.

Key to letters – A = HDAC3 inhib; B = NALP1 inh; C = MC4R antagonist; D = MC4R barr agon; E = ALR inh; F = UUG fidelity; G = MC4R barr conf; H = MOR-DOR barr ag
[1] Cc1cccc(NC(=O)/C(C#N)=C\c2ccc(C(=O)O)cc2)c1
  A: 2; B: -4; C: 14; D: -1; E: 15; F: ·; G: ·; H: ·
[2] Clc1ccc(/C=C\c2nccc3c2[nH]c2ccccc23)cc1
  A: ·; B: 6; C: 8; D: 14*; E: ·; F: ·; G: 4; H: 11
[3] N#Cc1ccc(/C=C\c2nccc3c2[nH]c2ccccc23)cc1
  A: -1; B: -2; C: 8; D: 4; E: 12; F: ·; G: ·; H: ·
[4] CN1C(=O)[C@H]2[C@@H](c3ccc(C(F)(F)F)cc3)N[C@]3(CCCN(Cc4ccc(F)cc4)C3=O)[C@H]2C1=O
  A: ·; B: ·; C: 20; D: -1; E: ·; F: -7; G: ·; H: ·
[5] CN1C(=O)[C@H]2[C@@H](c3ccc(C(F)(F)F)cc3)N[C@]3(CCCN(Cc4ccc(Cl)cc4)C3=O)[C@H]2C1=O
  A: ·; B: ·; C: 16; D: 9.7*; E: ·; F: -13; G: -3; H: 2
[6] CC1CCc2c(sc3ncn4c(SCC(=O)NCc5ccco5)nnc4c23)C1 (stereo not drawn)
  A: 13; B: 5; C: -16; D: 10*; E: 6; F: -9; G: 9.9*; H: 4
[7] CC1CCc2sc3ncn4nc(C(=O)NCc5ccco5)nc4c3c2C1 (stereo not drawn)
  A: -7; B: 5; C: 6; D: 0; E: 3; F: -18; G: ·; H: ·
[8] CC(=O)N/N=C/c1cc([N+](=O)[O-])ccc1OCCOc1ccccc1
  A: 4; B: -5; C: 7; D: 0; E: -4; F: -10; G: ·; H: ·
[9] NC(=S)N/N=C/c1cc([N+](=O)[O-])ccc1OCCOc1ccccc1
  A: -10; B: -3; C: -12; D: 16*; E: -5; F: -14; G: 2; H: 4
[10] C/C=C/c1ccc2c(c1)O[C@@H](CN(C)C(C)=O)[C@H](C)CN([C@H](C)CO)S2(=O)=O
  A: ·; B: ·; C: ·; D: ·; E: ·; F: 17; G: ·; H: ·

Just MC4R barr agon, MOR-DOR barr ag and UUG fidelity, for some of the entries so far:
No. | compound | MC4R barr agon | MOR-DOR barr ag | UUG fidelity
6 | CC1CCc2c(sc3ncn4c(SCC(=O)NCc5ccco5)nnc4c23)C1 (stereo not drawn) | 10* | 4 | -9
7 | CC1CCc2sc3ncn4nc(C(=O)NCc5ccco5)nc4c3c2C1 (stereo not drawn) | 0 | · | -18
3 | N#Cc1ccc(/C=C\c2nccc3c2[nH]c2ccccc23)cc1 | 4 | · | ·

New compounds follow
Key to letters – A = HDAC3 inhib; B = NALP1 inh; C = MC4R antagonist; D = MC4R barr agon; E = ALR inh; F = UUG fidelity; G = MC4R barr conf; H = MOR-DOR barr ag
[11] C[C@H]1CN([C@@H](C)CO)C(=O)CCCn2cc(nn2)CO[C@@H]1CN(C)C(=O)CCCN(C)C
  A: ·; B: ·; C: ·; D: ·; E: ·; F: 11; G: ·; H: ·
[12] Cc1ccc(S(=O)(=O)N2CCN(CCNC(=O)C(=O)Nc3ccc(F)cc3)CC2)cc1
  A: 2; B: 5; C: 24; D: 14*; E: 11; F: -13; G: 0; H: 6
[13] O=C(NCCN1CCN(S(=O)(=O)c2ccccc2)CC1)C(=O)Nc1ccc(F)cc1
  A: -2; B: 5; C: 6; D: -1; E: -3; F: -14; G: ·; H: ·
[14] Oc1ccc(Nc2ncnc3scc(-c4ccccc4)c23)cc1
  A: 9; B: 12; C: 4; D: 12*; E: 0; F: -20; G: 8; H: 6
[15] c1ccc(-c2csc3ncnc(NCc4ccccn4)c23)cc1
  A: 1; B: 18; C: -14; D: 11*; E: -2; F: ·; G: 4; H: 3
[16] CN1CCN(C(=O)C[C@H]2C[C@H]3c4cc(NC(=O)NC5CCCC5)ccc4O[C@H]3[C@H](CO)O2)CC1
  A: ·; B: ·; C: ·; D: ·; E: ·; F: -9; G: ·; H: ·
[17] CCCC(=O)Nc1ccc(-c2csc(N/N=C\c3ccncc3)n2)cc1
  A: 12; B: ·; C: 11; D: 19*; E: 98*; F: -10; G: 3; H: 8
[18] COC(=O)c1ccc(/C=N/Nc2nc(-c3ccccc3)cs2)cc1
  A: 12; B: -2; C: -8; D: -3; E: 70; F: -12; G: ·; H: ·
[19] CCOC(=O)c1sc2nc(NC(=O)C(C)(C)C)sc2c1C
  A: -2; B: 4; C: 16; D: 10.0*; E: 15; F: -43; G: 0; H: 8
[20] C[C@@H]1CN([C@@H](C)CO)C(=O)c2cc(-c3ccncc3)cnc2O[C@H]1CN(C)Cc1ccc(F)cc1
  A: ·; B: ·; C: ·; D: ·; E: ·; F: 2; G: ·; H: ·
[21] COc1ccc(Cn2c(=S)[nH]c3ccccc3c2=O)cc1
  A: 1; B: 2; C: 1; D: 11*; E: 2; F: 4; G: -3; H: 3
[22] CN1C(=O)c2cc(NC(=O)c3ccccc3)ccc2OC[C@@H]2O[C@H](CC(=O)NC3CCCC3)CC[C@@H]21
  A: ·; B: ·; C: ·; D: ·; E: ·; F: 2; G: ·; H: ·
[23] CCNc1ccc(C(=O)OCC(=O)NCc2ccccc2Cl)cc1[N+](=O)[O-]
  A: -4; B: 8; C: 0; D: 16*; E: -6; F: ·; G: 7; H: 3
[24] O=C(COC(=O)c1cc([N+](=O)[O-])ccc1NCc1ccccc1Cl)NCC(F)(F)F
  A: -3; B: 17; C: 2; D: 13*; E: -2; F: -7; G: 4; H: 4
[25] Cc1cc(Nc2ccc(F)c(F)c2)nc(-c2ccccc2O)n1
  A: -2; B: -1; C: 4; D: 14*; E: -2; F: ·; G: 4; H: 5
[26] COc1cc(-c2cc(NC(C)=O)c3ncc(-c4ccccc4)n3c2)cc(OC)c1OC
  A: ·; B: ·; C: 24; D: 4; E: ·; F: -8; G: ·; H: ·
[27] CC(=O)Nc1cc(-c2ccsc2)cn2c(-c3ccc(F)cc3)cnc12
  A: ·; B: ·; C: -4; D: 18*; E: ·; F: -14; G: 13*; H: 4
[28] CC(=O)Nc1cc(-c2cccnc2)cn2c(-c3ccc(F)cc3)cnc12
  A: ·; B: ·; C: 12; D: 42*; E: ·; F: -18; G: 44*; H: 0
[29] CC(=O)Nc1cc(-c2cccc(C(=O)NCCO)c2)cn2c(-c3ccc(F)cc3)cnc12
  A: ·; B: ·; C: 23; D: 3; E: ·; F: -26; G: ·; H: ·
[30] COc1ccc(-c2cnc3c(NC(C)=O)cc(-c4ccccc4OC)cn23)cc1OC
  A: ·; B: ·; C: -28; D: 22*; E: ·; F: -5; G: 25*; H: 2
[31] COc1ccccc1-c1cc(NC(C)=O)c2ncc(-c3ccc(S(C)(=O)=O)cc3)n2c1
  A: ·; B: ·; C: 11; D: 0; E: ·; F: -10; G: ·; H: ·
[32] COc1ccc(-c2cnc3c(NC(C)=O)cc(-c4ccsc4)cn23)cc1OC
  A: ·; B: ·; C: 5; D: 11*; E: ·; F: -21; G: 15*; H: 4
[33] Cc1ccccc1-c1cnc2c(c1)C(=O)N([C@H](C)CO)C[C@@H](C)[C@H](CN(C)Cc1cccnc1)O2
  A: ·; B: ·; C: ·; D: ·; E: ·; F: -4; G: ·; H: ·
[34] C[C@H](CO)N1C[C@H](C)[C@@H](CN(C)C(=O)CN(C)C)Oc2cc(C#Cc3cccnc3)ccc2S1(=O)=O
  A: ·; B: ·; C: ·; D: ·; E: ·; F: -3; G: ·; H: ·
[35] COc1ccc(NC(=O)N(C)C[C@H]2OCCCC[C@@H](C)Oc3ccc(NS(=O)(=O)c4cccs4)cc3C(=O)N([C@@H](C)CO)C[C@H]2C)cc1
  A: ·; B: ·; C: ·; D: ·; E: ·; F: 12; G: ·; H: ·
[36] COc1ccc(-c2cnc3c(NC(C)=O)cc(-c4cccc(C(=O)N(C)C)c4)cn23)cc1OC
  A: ·; B: ·; C: 4; D: 3; E: ·; F: 3; G: ·; H: ·

High-throughput results deposited in PubChem BioAssay by several laboratories.
